In US20230116972A1, “CD38 MODULATORS AND METHODS OF USE THEREOF” (Cytokinetics, Inc., priority 2021, published 2023) one finds IC50 data, which are given here for 1 compound.

Chains of the proteins cited; added tags and fusions are not shown.
UniProt P56528, whole entry: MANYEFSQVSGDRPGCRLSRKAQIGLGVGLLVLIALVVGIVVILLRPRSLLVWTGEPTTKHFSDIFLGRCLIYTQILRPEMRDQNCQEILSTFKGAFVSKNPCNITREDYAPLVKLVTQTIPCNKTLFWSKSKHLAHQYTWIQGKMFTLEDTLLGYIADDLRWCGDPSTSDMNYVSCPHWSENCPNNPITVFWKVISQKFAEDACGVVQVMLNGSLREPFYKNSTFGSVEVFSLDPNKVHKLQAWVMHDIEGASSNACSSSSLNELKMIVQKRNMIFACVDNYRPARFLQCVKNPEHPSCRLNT
UniProt P28907, whole entry: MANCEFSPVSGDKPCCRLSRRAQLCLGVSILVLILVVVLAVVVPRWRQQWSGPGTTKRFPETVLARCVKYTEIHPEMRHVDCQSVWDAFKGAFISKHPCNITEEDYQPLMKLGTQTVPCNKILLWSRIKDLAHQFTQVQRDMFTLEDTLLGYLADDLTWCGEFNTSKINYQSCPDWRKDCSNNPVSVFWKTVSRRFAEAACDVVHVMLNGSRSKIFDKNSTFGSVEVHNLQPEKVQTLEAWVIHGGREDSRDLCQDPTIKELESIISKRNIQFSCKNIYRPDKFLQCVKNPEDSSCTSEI

One test deals with mouse CD38 (Mus musculus, UniProt P56528). Description: mouse recombinant CD38 enzyme assay (hydrolysis of NAD+). Type of test: biochemical. The following applies: read-out: mCD38 BioChem IC50.
Another test addresses human CD38 (Homo sapiens, UniProt P28907). The test is described as follows: human recombinant CD38 enzyme assay (hydrolysis of NAD+). The note with it: read-out: hCD38 BioChem IC50; human recombinant CD38, 0.4 nM enzyme, 62.5 μM NAD+.
The target of test [1] is endogenous CD38 in HL60 cells (Homo sapiens, UniProt P28907). The test is described as follows: cellular CD38 assay in HL60 cells (cellular NAD levels). The note with it: read-out: hCD38 HL60 ATRA NAD Cell Diaphorase IC50, all-trans retinoic acid, 24 hours.

One may read the IC50 as the concentration that gives 50% inhibition.

Molecules are shown by their SMILES.

Turning to `O=C(Nc1cccnc1)c1cccc(-n2ccnc2)n1`, the results for the IC50 (on mouse CD38; on human CD38; in test [1]) were 8 nM, 10 nM and 280 nM, respectively.
